Values of other authors in patent US5352772A, “75 Kilodalton interleukin-2 receptor proteins and their uses” (The Trustees of Dartmouth College, priority 1986, dated 1994).

Test system: IL-2 receptors
Details: cited from earlier work

IL-2: 15,000 dalton glycoprotein lymphokine; homogeneous recombinant IL-2 provided by Takeda Chemical Industries
increase in cell surface density of Tac antigen+ low affinity IL-2 binding sites (IL-2 mediated, earlier experiments): 10 fold
decline of high affinity IL-2 receptors (in the presence of IL-2): ≤ 50%
